Target: T1, HMG-CoA reductase (Homo sapiens, UniProt P04035)
T1 sequence (P04035 426-888 limits assumed): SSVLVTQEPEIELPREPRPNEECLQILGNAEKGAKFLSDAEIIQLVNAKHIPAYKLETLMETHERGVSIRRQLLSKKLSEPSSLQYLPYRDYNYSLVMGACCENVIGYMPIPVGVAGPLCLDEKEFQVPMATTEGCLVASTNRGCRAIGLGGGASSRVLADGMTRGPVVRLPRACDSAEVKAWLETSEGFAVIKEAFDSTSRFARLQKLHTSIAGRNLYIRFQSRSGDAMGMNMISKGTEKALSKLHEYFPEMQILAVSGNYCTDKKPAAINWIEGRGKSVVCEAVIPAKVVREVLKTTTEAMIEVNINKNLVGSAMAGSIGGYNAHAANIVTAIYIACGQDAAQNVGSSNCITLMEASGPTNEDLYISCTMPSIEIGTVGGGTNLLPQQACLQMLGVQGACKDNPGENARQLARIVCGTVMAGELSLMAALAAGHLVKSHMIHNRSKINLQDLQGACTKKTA
Test: HMG-CoA reductase inhibitory activity test in vitro
Assay type: biochemical

Question: Which IC50 does the source give for `CC(C)c1c(C(=O)Nc2ccccc2)c(-c2ccccc2)c(-c2ccc(F)cc2)n1CC[C@@H](O)C[C@@H](O)CC(=O)O` [atorvastatin, reference compound] here?
Answer: The IC50 was 31.2 µM.

Source: patent US10441562B2, “Aromatic farnesyl compound and application thereof” (INSTITUTE OF MICROBIOLOGY, CHINESE ACADEMY OF SCIENCES, priority 2015, dated 2019)
